# Antibody variant affinities, Ab-91 heavy chain, assay 2

Values reported by Engelhart et al. 2022, doi:10.1038/s41597-022-01779-4 (FLAb copy).

Antigen: PDVDLGDISGINAS, a 14-residue peptide of the SARS-CoV-2 spike HR2 region.

Parent scFv Ab-91: VL joined to VH by a 15-residue (Gly4Ser)3 linker. Changes lie in the heavy chain CDRs alone.
VL: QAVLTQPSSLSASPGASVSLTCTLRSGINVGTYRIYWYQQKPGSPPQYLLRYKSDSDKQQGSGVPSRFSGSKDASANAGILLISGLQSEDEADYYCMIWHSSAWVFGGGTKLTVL
VH: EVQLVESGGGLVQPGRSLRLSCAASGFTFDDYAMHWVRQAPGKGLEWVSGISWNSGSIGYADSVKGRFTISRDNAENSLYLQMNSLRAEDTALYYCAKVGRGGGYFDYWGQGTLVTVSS

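The starting antibody came from a phage panning campaign against this peptide. In library AAYL51, one, two or three CDR residues were substituted; doubles and triples were drawn at random. In AlphaSeq, yeast of one mating type display the scFv and yeast of the other type display the target. The frequency of each diploid, read from paired DNA barcodes, reflects how well the two displayed proteins bind. Each replicate has its own calibration line, from reference interactions of the BCL2 family. The assay was run in three technical replicates.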

Substitutions are numbered in sequence along the VH above, starting at 1 (not Kabat).
This list gathers variants with a substitution at M34 (VH, numbered from residue 1).
Values are log10 of the apparent Kd in nM; lower means stronger binding.
Replicates are averaged; those with no signal do not enter the mean.
A pair that was not seen in that replicate is written "nd"; this usually means weak binding, but a binder can also be missed.
Entries are sorted by rising average, undetected variants last.
Nonspecific signal, from three strains lacking the peptide, appeared in 21% of pairings of library AAYL51, centred on 4.54 (5% of these signals below 3.26); values are not corrected for it. For each scFv, signals with the empty controls are counted beside the result.

With D30N+M34F+G56Q the result was 1.58, 1.61, 0.99 (mean 1.40; controls 2 of 9).
With M34F+Y105T the result was 3.76, 3.38, 2.29 (mean 3.14; controls 0 of 9).
With T28S+M34V+Y108G the result was 2.41, 3.91, 3.65 (mean 3.32; controls 2 of 9).
With M34A+W53K+G59L the result was 4.03, nd, 4.37 (mean 4.20; controls 2 of 9).
With M34Y+N54L+S55V the result was nd, nd, 4.25 (controls 1 of 9).
With M34E+D62G+G100Y the result was 4.26, nd, nd (controls 3 of 9).
With M34E+S55K+G56L the result was 4.83, 5.07, 3.56 (mean 4.49; controls 2 of 9).
With M34N+I51T+S52M the result was 4.20, 4.81, nd (mean 4.50; controls 1 of 9).
With A33I+M34I+R101Y the result was nd, nd, 4.56 (controls 2 of 9).
With M34R+G50Y+S55R the result was 4.65, nd, nd (controls 2 of 9).
With M34A+S55L+D107M the result was nd, 4.66, nd (controls 2 of 9).
With M34Q+W53T+F106T the result was 4.72, nd, nd (controls 0 of 9).
With M34H+G102W+Y105N the result was nd, 4.90, nd (controls 4 of 9).
With M34V+F106M the result was 4.75, 5.86, 4.32 (mean 4.98; controls 2 of 9).
With M34Q+D62P+F106N the result was 5.41, 4.86, 5.34 (mean 5.20; controls 7 of 9).
With M34T+S55V+K65P the result was 5.23, nd, nd (controls 3 of 9).
With A33V+M34G+Y105S the result was nd, 5.60, nd (controls 2 of 9).
With F29S+M34R+D62P the result was 6.21, 6.35, nd (mean 6.28; controls 6 of 9).
With M34L+G50A+I58N the result was nd, nd, nd (controls 1 of 9).
With M34D+G50E+G104A the result was nd, nd, nd (controls 0 of 9).
With M34C+G59P+D107Y the result was nd, nd, nd (controls 2 of 9).
With A33P+M34I+R101D the result was nd, nd, nd (controls 2 of 9).
With G26E+A33Y+M34W the result was nd, nd, nd (controls 1 of 9).
With D31K+M34N+G59K the result was nd, nd, nd (controls 1 of 9).
With M34R+D62A+V99S the result was nd, nd, nd (controls 0 of 9).
With M34K+Y60R+S63L the result was nd, nd, nd (controls 0 of 9).
With M34A+Y105H+F106M the result was nd, nd, nd (controls 2 of 9).
With Y32W+M34R+A61G the result was nd, nd, nd (controls 2 of 9).
With M34L+W53V+N54F the result was nd, nd, nd (controls 0 of 9).
With F27D+M34D+S57Y the result was nd, nd, nd (controls 0 of 9).
With D31N+M34I+H35R the result was nd, nd, nd (controls 1 of 9).
With M34G+G50N+G103M the result was nd, nd, nd (controls 0 of 9).
With M34H+Y105I+Y108R the result was nd, nd, nd (controls 2 of 9).
With D31I+M34T+Y105N the result was nd, nd, nd (controls 2 of 9).
With G26K+M34Y+S57F the result was nd, nd, nd (controls 1 of 9).
With Y32W+M34C+S63K the result was nd, nd, nd (controls 0 of 9).
With M34E+N54S+G56I the result was nd, nd, nd (controls 1 of 9).
With M34W+G50H+F106G the result was nd, nd, nd (controls 0 of 9).
With M34V the result was nd, nd, nd (controls 0 of 9).
With M34R+W53F+F106Y the result was nd, nd, nd (controls 0 of 9).
With M34R+W53R+G104E the result was nd, nd, nd (controls 1 of 9).
With M34D+I51M+D107E the result was nd, nd, nd (controls 3 of 9).
With G26K+Y32A+M34A the result was nd, nd, nd (controls 0 of 9).
With F29R+M34P+G102F the result was nd, nd, nd (controls 1 of 9).
With F27R+D30E+M34V the result was nd, nd, nd (controls 1 of 9).
With T28L+M34G+W53V the result was nd, nd, nd (controls 1 of 9).
With Y32E+M34T+H35P the result was nd, nd, nd (controls 0 of 9).
With Y32W+M34Y+S57P the result was nd, nd, nd (controls 1 of 9).
With G26P+M34D the result was nd, nd, nd (controls 0 of 9).

Extract of 7 entries:

The variant A33I+M34I+R101Y gave nd, nd, 4.56 (controls 2 of 9).
The variant M34E+D62G+G100Y gave 4.26, nd, nd (controls 3 of 9).
The variant M34A+Y105H+F106M gave nd, nd, nd (controls 2 of 9).
The variant G26P+M34D gave nd, nd, nd (controls 0 of 9).
The variant D30N+M34F+G56Q gave 1.58, 1.61, 0.99 (mean 1.40; controls 2 of 9).
The variant M34L+G50A+I58N gave nd, nd, nd (controls 1 of 9).
The variant G26E+A33Y+M34W gave nd, nd, nd (controls 1 of 9).